{"source": "paper PMC11969009", "about": "(Nature Communications, 2025)", "system": "47 human DUBs", "test": "DUBprofiler specificity assay (Ubiquigent)", "details": "50 µM concentration", "data": [{"smiles": "CO/N=C(/c1ccc2cc(OC)ccc2c1)C1CCCN(C2CCC(O)CC2)C1", "note": "(stereo not shown)", "values": [{"measurement": "inhibitory activity against 47 human DUBs", "value": "did not show any inhibitory activity"}]}]}
